The values that follow come from US20260207621A1 (Vividion Therapeutics, Inc., priority 2022, published 2026).

Chains of the proteins cited; added tags and fusions are not shown.
UniProt Q14145, whole entry: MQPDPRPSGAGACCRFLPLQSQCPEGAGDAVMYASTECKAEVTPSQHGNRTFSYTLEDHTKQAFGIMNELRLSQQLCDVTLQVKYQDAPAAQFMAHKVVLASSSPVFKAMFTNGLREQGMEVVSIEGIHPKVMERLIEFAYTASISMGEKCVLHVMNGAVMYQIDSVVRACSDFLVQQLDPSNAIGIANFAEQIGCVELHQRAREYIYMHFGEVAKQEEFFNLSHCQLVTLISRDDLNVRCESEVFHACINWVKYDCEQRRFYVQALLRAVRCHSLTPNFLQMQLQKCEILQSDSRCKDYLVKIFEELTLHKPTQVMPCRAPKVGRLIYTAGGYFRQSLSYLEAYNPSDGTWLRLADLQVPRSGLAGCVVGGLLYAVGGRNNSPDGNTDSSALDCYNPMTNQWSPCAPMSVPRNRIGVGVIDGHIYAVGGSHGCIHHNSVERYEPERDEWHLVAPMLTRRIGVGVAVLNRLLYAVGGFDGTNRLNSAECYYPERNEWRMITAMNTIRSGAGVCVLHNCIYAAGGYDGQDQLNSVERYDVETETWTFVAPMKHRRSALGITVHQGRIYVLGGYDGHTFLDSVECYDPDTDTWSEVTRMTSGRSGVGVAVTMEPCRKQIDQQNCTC

In the first assay the test system is Nrf2. In words: Nrf2 antagonism assay: ARE luciferase reporter in KYSE-70 cells. As to conditions: positive Imax corresponds to Nrf2 antagonism. The text has this: NRF2 binds to a promoter region, antioxidant response element (ARE), to initiate expression of multiple genes. ARE luciferase reporter assays are used to test whether a ligand can activate or repress the expression of target genes using luciferase as a reporter gene.
KYSE-70 is an esophageal squamous cell carcinoma cell line with a Nrf2 mutation at amino acid position W24C. This mutation lowers the affinity between the E3 ligase that includes KEAP1 and Nrf2, resulting in a state in which the synthesis rate of new Nrf2 is faster than the E3's degradation rate of Nrf2, resulting in a “Nrf2 high” state. In KYSE-70 cells, genes are inserted directly after the ARE that trigger the expression of luciferase. Without a NRF2 antagonist in this modified KYSE70 cell line which has an inherently “NRF2 high state”, luciferase is expressed, and a signal is observed.
Nrf2 antagonists bind at C151 of KEAP1 and stabilize the E3 which results in an increased degradation rate of Nrf2. Increased degradation of Nrf2 results in less expression of luciferase, and therefore a less intense signal.
An IC50 is generated from the dose-response curve and an Imax. A positive Imax corresponds to Nrf2 antagonism. Imax >90% correlates with in vivo tumor grown inhibition. Compounds with Imax >50% were included in this description.
Regarding `C=CC(=O)N1C[C@](C)(O)CC[C@@H]1c1cc(Cl)cc(-c2ncc(N)cn2)c1`, the “KYSE70 Cellular ARE Luciferase Imax (%)” value was determined as 83%.

In the case of `C=CC(=O)N1CCOCC1c1cc(Cl)cc(-c2coc(N)n2)c1` (single isomer, unassigned), the “KYSE70 Cellular ARE Luciferase Imax (%)” value was determined as 78%.

`C=CC(=O)N1C[C@@](C)(O)CC[C@@H]1c1cc(Cl)cc(-c2ncc(N)cn2)c1`: the “KYSE70 Cellular ARE Luciferase Imax (%)” value amounted to 88%.

A further assay concerns the target KEAP1 C151 (Homo sapiens, UniProt Q14145). Kind of assay: Nrf2 TMT measurement: in vitro TE50 for KEAP1 C151 (IA-DTB competition, targeted TMT mass spectrometry) in MDA-MB-468 cell lysate. Type of assay: binding. As to conditions: read-out: KEAP1_C151 TE50, in vitro target engagement of KEAP1 C151, targeted TMT.
In the case of `C=CC(=O)N1C[C@](C)(O)CC[C@@H]1c1cc(Cl)cc(-c2ncc(N)cn2)c1`, the IC50 worked out at 77 nM.

As for `C=CC(=O)N1CCOCC1c1cc(Cl)cc(-c2coc(N)n2)c1` (single isomer, unassigned), the IC50 was 51 nM.

In the case of `C=CC(=O)N1C[C@@](C)(O)CC[C@@H]1c1cc(Cl)cc(-c2ncc(N)cn2)c1`, the IC50 was 1360 nM.
